Experimental data from patent US11547712B2, “Kinase inhibitor compounds and compositions and methods of use” (ICAHN SCHOOL OF MEDICINE AT MOUNT SINAI, priority 2017, dated 2023).

Legend:
[1] = molecular target: T1, DYRK1A (Homo sapiens (Human), UniProt Q13627); test: FRET-based LanthaScreen Eu Kinase Binding Assay (Life Technologies); conditions: 30 μM single concentration; read-out: Screening (30 μM) LifeTech: % DYRK1A inhibition at 30 μM
Description: (§1) DYRK1A Binding Assays. Compounds were tested for DYRK1A binding activity at two different commercial kinase profiling services, Life Technologies and DiscoverX. […] Compounds were screened for DYRK1A activity at a single concentration of 30 μM in duplicates.

[2] = molecular target: T1, DYRK1A; test: KINOMEscan Assay (DiscoverX), DYRK1A binding; conditions: read-out: Screening (30 μM) DiscoverX: primary screen binding interactions, % DMSO Ctrl
Description: as §1

SMILES | inhibition at 30 µM [1] | remaining binding at 30 µM [2]
O=c1[nH]c2ccc(C3=NN=C(NCc4ccc5ccccc5c4)SC3)cc2[nH]1 [Compound 3-40, N-(2-naphthylmethyl)-5-(benzo[d]imidazol-2(3H)-one)-6H-1,3,4-thiadiazin-2-amine] | 24% | 64%
O=c1[nH]c2ccc(C3=NN=C(Nc4cccc5ccccc45)SC3)cc2[nH]1 [Compound 3-42, N-(1-naphthyl)-5-(benzo[d]imidazol-2(3H)-one)-6H-1,3,4-thiadiazin-2-amine] | 32% | 82%
